Tested on: retina (bipolar cell layer)

Compound: COc1cccc2c1C(=O)c1c(O)c3c(c(O)c1C2=O)C[C@@](O)(C(=O)CO)C[C@@H]3O[C@H]1C[C@H](N)[C@H](O)[C@H](C)O1 [doxorubicin]
- cytotoxicity (thinning of the retinas, decreased number of mCherry-expressing bipolar cells) (doxorubicin at the concentration of 2000M (so in the source), intravitreal, mice): produced cytotoxicity
- bipolar cell layer appearance in retinal vertical sections (three months after co-injection, high DOX concentrations, representative images): appears thinner
- thickness of bipolar cell layer vs control (three months after virus injection, co-injection of DOX at 300 or 500 μM): statistically thinner than that of control
